Details: after precipitate formed; pH about 10.5; expressed as H4-o,o-HBED
Procedure: (§1) Phenol was extracted from the reaction mixture with methyl isobutyl ketone (250 ml and 3 times 125 ml).
as §1
(§2) Phenol was extracted from the reaction mixture with methyl isobutyl ketone (75 ml and 3 times 50 ml).
(§3) Phenol was extracted from the reaction mixture with methyl isobutyl ketone (100 ml and 3 times 50 ml).
as §3, §2
Phenol was extracted from the reaction mixture with methyl isobutyl ketone (85 ml and 3 times 50 ml).
as §2

## O=C(O)CN(CCN(CC(=O)O)Cc1ccccc1O)Cc1ccccc1O [Comparative Example 1, N,N′-di(2-hydroxybenzyl)ethylenediamine-N,N′-diacetic acid, reference compound]
  remaining concentration of o,o-HBED in solution: approximately 6.1%

Source: patent publication US10472320B2, “Process to prepare phenolic ethylenediamine diacetic acid compounds” (Akzo Nobel Chemicals International B.V., priority 2015, dated 2019)
